Data taken from US10512665B2, “Methods and compositions related to inhibition of viral entry” (University of Utah Research Foundation, priority 2007, dated 2019).

Test: Toxicity observed in the viral infectivity assay
Format: cell-based
Conditions: up to 100 μM; quenched by reaction with Tris
Description: To control for possible non-specific effects of the PEG moiety, mono(NHS-ester)PEG was reacted with PIE7 to generate PEG-PIE7. […] Therefore, the improved potency of the dimers cannot be attributed to an interaction of the PEG with virus, cells, or the D-peptide, but is a genuine avidity effect caused by two D-peptides binding to the N-trimer. As a final control, the crosslinking reagent itself (quenched by reaction with Tris) is non-toxic up to 100 μM in this assay.
All studies were done using the HXB2 strain unless otherwise specified. Viral infectivity was measured essentially as previously described (Hamburger 2005) with several modifications. 8 μg/mL DEAE-Dextran was used as a fusion enhancer in all assays. Media was changed 22-26 h following infection. IC50 values were calculated by fitting normalized data to the following equation: y=1/(1+[inhibitor]/IC50). Fits were weighted by the absolute s.e.m. from quadruplicate points with the minimum allowable error set to 1%.

Bis-dPEG9™ NHS ester [crosslinking reagent]
Toxicity: non-toxic
